Experimental findings from article PMC3863386 (Journal of the American Chemical Society, 2013) are described below.

Amino acid sequences for entries named in this document (tags omitted). A change or cut given only in a name is not applied to a line headed by its entry.
UniProt P76141: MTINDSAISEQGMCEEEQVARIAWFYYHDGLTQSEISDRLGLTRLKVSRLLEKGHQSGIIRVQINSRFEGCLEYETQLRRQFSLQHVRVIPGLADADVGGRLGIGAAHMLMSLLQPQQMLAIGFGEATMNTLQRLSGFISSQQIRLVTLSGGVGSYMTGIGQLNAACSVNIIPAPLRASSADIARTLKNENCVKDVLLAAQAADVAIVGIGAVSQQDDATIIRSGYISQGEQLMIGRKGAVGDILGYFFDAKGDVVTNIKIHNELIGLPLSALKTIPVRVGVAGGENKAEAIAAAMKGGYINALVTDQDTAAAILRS

In the test the target is LsrR (Escherichia coli, UniProt P76141).

Like-named read-outs stand apart in the source and are kept apart here.

For the substance phospho-isobutyl DPD [D8P], the dissociation constant Kd by setting is: (read-out: Kd of LsrR (ITC), ITC, 20°C, one-site binding model) 430 ± 150 nM; (read-out: LsrR-binding affinity (Kd), approximate, rounded summary value) approximately 500 nM.
